Test results from patent US20030125352A1, “Therapeutic tropane compounds” (priority 2001, published 2003).

The chains behind the UniProt entries cited, without tags or fusion partners.
UniProt Q9GJT6, whole entry: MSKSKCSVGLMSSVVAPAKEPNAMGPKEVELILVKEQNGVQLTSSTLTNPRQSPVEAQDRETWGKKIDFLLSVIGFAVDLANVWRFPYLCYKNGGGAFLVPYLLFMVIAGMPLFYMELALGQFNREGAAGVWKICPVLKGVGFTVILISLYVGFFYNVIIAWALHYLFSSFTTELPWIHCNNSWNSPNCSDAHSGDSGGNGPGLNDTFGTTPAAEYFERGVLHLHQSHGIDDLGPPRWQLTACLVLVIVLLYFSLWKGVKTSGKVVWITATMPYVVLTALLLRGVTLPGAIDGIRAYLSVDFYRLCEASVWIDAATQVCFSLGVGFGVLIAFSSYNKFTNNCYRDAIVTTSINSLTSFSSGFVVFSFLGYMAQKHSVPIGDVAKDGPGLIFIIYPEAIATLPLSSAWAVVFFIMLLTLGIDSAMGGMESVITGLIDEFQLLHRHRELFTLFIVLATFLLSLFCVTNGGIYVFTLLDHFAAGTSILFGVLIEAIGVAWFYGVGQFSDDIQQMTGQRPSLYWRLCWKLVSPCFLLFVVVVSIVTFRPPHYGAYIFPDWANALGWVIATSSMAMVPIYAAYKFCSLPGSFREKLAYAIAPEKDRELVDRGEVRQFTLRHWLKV

Biological target: dopamine transporter (Macaca fascicularis, UniProt Q9GJT6)
Assay: Dopamine transporter assay: inhibition of {3H}WIN 35,428 binding in caudate-putamen membranes
Parameters: species or system rhesus or cynomolgus monkey
Settings: read-out: IC50 (nM) DAT, Table 1, monkey caudate-putamen

Row | SMILES | IC50 [nM]
1 | COC(=O)C1C(c2ccc(Cl)c(Cl)c2)CC2C(O)CC1N2C (centres unmarked) | 33.2
2 | COC(=O)C1C(c2ccc(Cl)c(Cl)c2)CC2CC(O)C1N2C (centres unmarked) | 3.04
